The text below walks through data of patent publication US11390616B2 (BRISTOL-MYERS SQUIBB COMPANY, priority 2015, dated 2022).

By UniProt entry, the sequences of proteins in these tests, tags left out.
UniProt P35414, whole entry: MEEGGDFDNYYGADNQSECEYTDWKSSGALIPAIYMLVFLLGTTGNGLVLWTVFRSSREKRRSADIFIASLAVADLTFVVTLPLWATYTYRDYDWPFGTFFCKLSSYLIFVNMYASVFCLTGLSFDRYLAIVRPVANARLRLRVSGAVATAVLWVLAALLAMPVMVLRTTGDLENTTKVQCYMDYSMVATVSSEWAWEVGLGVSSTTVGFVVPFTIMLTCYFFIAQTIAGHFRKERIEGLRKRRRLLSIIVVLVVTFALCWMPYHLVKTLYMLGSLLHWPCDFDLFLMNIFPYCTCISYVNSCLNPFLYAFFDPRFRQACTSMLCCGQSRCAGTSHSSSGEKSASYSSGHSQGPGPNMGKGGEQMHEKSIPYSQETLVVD

This experiment deals with APJ receptor (Homo sapiens, UniProt P35414). Briefly: Intracellular cAMP accumulation assay (APJ hcAMP, HTRF). Conditions: read-out: APJ cAMP Potency range; HEK293 cells stably expressing human APJ receptor; inhibition of forskolin-mediated cAMP production.

On to `CCCCc1nc(O)c(Cc2ccc(-c3ncon3)cc2)c(=O)n1-c1c(OC)cccc1OC`, for which the EC50 fell in the range of 0.01 to 10 nM.
